Measurements: paper PMC11338008, “Development and validation of CYP26A1 inhibition assay for high-throughput screening” (Biotechnology journal, 2024)

The chains behind the UniProt entries cited, without tags or fusion partners. Where a name states a change or a piece, a line headed by the entry shows the natural chain unless it says otherwise.
UniProt O43174: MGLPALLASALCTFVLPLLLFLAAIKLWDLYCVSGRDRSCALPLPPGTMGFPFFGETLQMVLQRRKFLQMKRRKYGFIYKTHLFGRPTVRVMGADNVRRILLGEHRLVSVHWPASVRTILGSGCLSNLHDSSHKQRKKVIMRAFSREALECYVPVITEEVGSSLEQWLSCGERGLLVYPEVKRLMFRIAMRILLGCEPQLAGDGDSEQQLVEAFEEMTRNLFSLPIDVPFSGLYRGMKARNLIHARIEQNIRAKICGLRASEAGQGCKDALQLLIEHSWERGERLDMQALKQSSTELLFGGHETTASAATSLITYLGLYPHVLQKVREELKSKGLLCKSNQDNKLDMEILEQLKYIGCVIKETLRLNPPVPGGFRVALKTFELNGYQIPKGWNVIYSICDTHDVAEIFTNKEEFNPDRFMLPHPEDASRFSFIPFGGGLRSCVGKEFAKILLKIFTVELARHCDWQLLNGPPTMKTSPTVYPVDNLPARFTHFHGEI

Biological target: recombinant wild-type human CYP26A1 enzyme (Homo sapiens, UniProt O43174)
Assay: P450-Glo CYP26A1 inhibition assay (luciferin-BE substrate, 1536-well)
Details: for Maximum response: normalized to positive control atRA (−100%) and DMSO (0%)
[1] = mean ± SD from three experiments, 2 μM luciferin-BE, active = maximum response greater than 40%
[2] = mean ± SD from three experiments

Structure (SMILES)	CYP26A1 inhibition, result in words	IC50 [1] [µM]	Maximum response [2] [%]	IC50 (read-out: IC50 (Figure 4 concentration-response curves), values printed in Figure 4 legend, three experiments) [µM]
CC(C)OP(=S)(OC(C)C)SCCNS(=O)(=O)c1ccccc1	novel CYP26A1 inhibitors	39.3	−93.3 ± 1.7	32.5
O=C1C2CC=CCC2C(=O)N1SC(Cl)(Cl)C(Cl)Cl (stereo not drawn)		4.6	−108.27 ± 3.6	

Read-outs that look alike come from different tables or passages of the source.
